Test results as given in patent US20260384672A1, “FLUORESCENT INDICATORS FOR METAL ION DETECTION AS SUBSTRATES FOR A SELF-LABELING ENZYME” (published 2026).

Legend:
HEK HT(+) cells = test: Cell based assay: fluorescence change in HEK HT(+) cells after Tl+; settings: loaded 30 minutes, 1 mM Tl+ stimulus
Method: Seeded HEK 293 cells (ATCC) into a 6 well plate. Used pHTC HALOTAG® CMV-neo Vector and Lipofectamine 2000 (THERMO) to transfect cells. Allowed cells to grow and look healthy before adding 300 μg/ml G418 solution. Conducted limited dilution cloning in 96-well plate. Confirmed HALOTAG® expression by adding TMR. Expanded cells that expressed HALOTAG®.
(§1) Prepared dye load buffer with the desired indicator, dye load may include probenecid, pluronic, TRS. Add the dye load to cells (both wild type (WT) and HALOTAG® expressing (HT+) cells that had been allowed to grow in a 96-well plate overnight. Collect bottom read fluorescence and images on a Cytation5 (BioTek). In some cases after loading, cells were washed to allow unbound dye to efflux from cells over a period of time. Wash solution may be dye load or media, may include TRS, may not include probenecid. Collect unloading data on the Cytation5 as well. Then added stimulus solution to record fluorescence change and differences between WT cells and HT+ cells. Use both Cytation5 and FlexStation.
(§2) HEK WT and HEK HT(+) cells were loaded with compound I-2. After loading for 30 minutes (pre-stimulus images), a stimulus solution of 1 mM Tl^+ was added.

HALOTAG® protein = test: Fluorescence polarization with HALOTAG Standard Protein; settings: PBS+CHAPS
Method: First, made the buffer solution in which to dissolve/test the desired compounds which is composed of TMR ligand (Promega) as a positive control, HALOTAG®Standard Protein (Promega), and Thallos HALOTAG®Ligand (ION). Combined 1×PBS (Gibco) with 0.01% w/v CHAPS hydrate (Sigma). Added adequate amount of TMR (Promega) solution to the buffer solution to have a working concentration of 200 nM. Hydrolyzed Thallos HALOTAG® Ligand (ION) using KOH. Added adequate amount of this solution to the buffer solution to have a working concentration of 200 nM. Added adequate amount of HALOTAG® Standard Protein (Promega) to the buffer solution to have a working concentration of 800 nM.
Added two sets of 20 μL of PBS+CHAPS solution, 20 μL of TMR in PBS+CHAPS solution, and 20 μL of Thallos HALOTAGR Ligand in PBS+CHAPS solution to a 384-well plate (Falcon). Used a FlexStation (Molecular Devices) to collect data. Set the excitation wavelength to 550 nm and the emission wavelength to 590 nm when reading TMR data. For the Thallos data, set excitation to 485 nm and emission to 515 nm. Collected baseline fluorescence polarization data for 1 minute. After adding the compound being tested to each well, added 20 ul of PBS+CHAPS solution to one set of wells and 20 ul of HALOTAG® Standard protein in PBS+CHAPS solution to the other set of wells. Collect fluorescence polarization data for 10 minutes.

HEK WT cells = test: Cell based assay: fluorescence change in HEK WT cells after Tl+
Source text: as §1, §2

[1] = Potassium sensitivity on streptavidin coated slides; settings: streptavidin coated glass slide, increasing K2SO4, vs non-biotinylated control
Method: A glass slide was coated with streptavidin. Compound VII-11, having a biotin coupling agent, was added to the slide. The slide was treated with increasing concentrations of potassium ions (K2SO4).

[2] = with HALOTAG® protein, 200 nM indicator, 800 nM protein, 10 minutes

Structure (SMILES)	increase in fluorescence (HEK HT(+) cells)	fluorescence polarization (HALOTAG® protein; HALOTAG protein not added)	fluorescence polarization (HALOTAG® protein; [2])	retention of the indicator (HEK WT cells)	increase in fluorescence (HEK WT cells; loaded 30 minutes, 1 mM Tl+ stimulus)	K sensitivity when immobilized [1]
CC(=O)OCOC(=O)CN(CC(=O)OCOC(C)=O)c1ccc(C(=O)Nc2ccc3c(c2)C(=O)OC32c3ccc(OC(C)=O)cc3Oc3cc(OC(C)=O)ccc32)cc1OCc1cn(CC(=O)NCCOCCOCCCCCCCl)nn1	large increase in fluorescence	decreased or remained the same	increased	do not retain significant concentrations	negligible increase	
CC(=O)OCOC(=O)CN(CC(=O)OCOC(C)=O)c1ccccc1OCCOc1cc2c(cc1N(CC(=O)OCOC(C)=O)CC(=O)OCOC(C)=O)C(=O)OC21c2ccc(OC(C)=O)cc2Oc2cc(N3CC(C(=O)NCCOCCOCCCCCCCl)C3)ccc21 (stereo not shown)		decreased or remained the same	increased			
COCCOc1cc(-c2c3cc(CCC(=O)NCCOCCOCCNC(=O)CCCC[C@@H]4SC[C@@H]5NC(=O)N[C@@H]54)c(=O)c(Cl)c-3oc3c(Cl)c(O)c(CCC(=O)NCCOCCOCCNC(=O)CCCC[C@@H]4SC[C@@H]5NC(=O)N[C@@H]54)cc23)ccc1N1CCOc2cc(C)ccc2N2CCOCCOCCN(CCOCCOCC2)c2ccc(C)cc2OCC1						retains its sensitivity to potassium
COc1cc(NC(=O)c2ccc3c(c2)C(=O)OC32c3ccc(OC(C)=O)cc3Oc3c2ccc(OC(C)=O)c3CN(C)Cc2cn(CC(=O)NCCOCCOCCCCCCCl)nn2)ccc1N(CC(=O)OCOC(C)=O)CC(=O)OCOC(C)=O (stereo not shown)		decreased or remained the same	increased			
